Source: article PMC5681660, “Reduced hepatitis B and D viral entry using clinically applied drugs as novel inhibitors of the bile acid transporter NTCP” (Scientific Reports, 2017)

target: T1, human NTCP (Homo sapiens, UniProt Q14973); experiment: Screening fluorescent competitive Myrcludex B-FITC binding assay (96-well, 10 µM drug); conditions: 0.5 h, read-out: %NTCP binding, screening Myrcludex B-FITC binding, 10 µM drug, Prestwick library
T1 sequence (Q14973 1-349): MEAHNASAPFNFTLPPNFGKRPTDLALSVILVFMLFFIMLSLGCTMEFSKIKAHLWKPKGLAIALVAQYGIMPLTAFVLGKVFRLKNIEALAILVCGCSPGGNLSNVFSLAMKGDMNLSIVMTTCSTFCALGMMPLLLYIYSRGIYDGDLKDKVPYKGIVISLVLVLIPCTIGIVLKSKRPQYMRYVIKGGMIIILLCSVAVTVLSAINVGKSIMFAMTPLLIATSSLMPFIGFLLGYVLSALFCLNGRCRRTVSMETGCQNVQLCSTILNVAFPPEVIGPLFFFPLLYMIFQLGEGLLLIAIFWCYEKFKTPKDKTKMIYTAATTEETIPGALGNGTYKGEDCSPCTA

Structure (SMILES)	remaining activity at 10 µM
CCN(C)C(=O)Oc1cccc([C@H](C)N(C)C)c1 [Rivastigmine]	85.7%
C=C1C[C@@H]2[C@H](CC[C@]3(C)C(=O)CC[C@@H]23)[C@@]2(C)C=CC(=O)C=C12 [Exemestane]	84.2%
c1ccc2c(c1)Nc1ccccc1S2 [Phenothiazine]	59.7%

same assay, conditions: screening Myrcludex B-FITC binding, 10 µM drug

Structure (SMILES)	B-score binding assay
Clc1ccc(COC(Cn2ccnc2)c2ccc(Cl)cc2Cl)cc1 (stereo not drawn) [Econazole nitrate]	-0.677
CCC(COC(=O)c1cc(OC)c(OC)c(OC)c1)(c1ccccc1)N(C)C (stereo not drawn) [Trimebutine]	-0.102
Nc1ccc(S(=O)(=O)NC(=O)c2ccccc2)cc1 [Sulfabenzamide]	-0.412
CC(=O)Nc1ccc(OCC(O)CNC(C)C)cc1 (stereo not drawn) [Practolol]	-0.221
CC1(C)[C@@H](OC(=O)CCC(=O)O)CC[C@]2(C)[C@H]3C(=O)C=C4[C@@H]5C[C@@](C)(C(=O)O)CC[C@]5(C)CC[C@@]4(C)[C@]3(C)CC[C@@H]12 [Carbenoxolone disodium salt]	-0.442
CC[C@H](C)[C@H]1O[C@]2(C=C[C@@H]1C)C[C@@H]1C[C@@H](C/C=C(\C)[C@@H](O[C@H]3C[C@H](OC)[C@@H](O[C@H]4C[C@H](OC)[C@@H](O)[C@H](C)O4)[C@H](C)O3)[C@@H](C)/C=C/C=C3\CO[C@@H]4[C@H](O)C(C)=C[C@@H](C(=O)O1)[C@]34O)O2 [Avermectin B1a]	-6.584
CCOC(=O)OC(C)OC(=O)[C@@H]1N2C(=O)[C@@H](NC(=O)[C@H](N)c3ccccc3)[C@H]2SC1(C)C (stereo partly drawn) [Bacampicillin hydrochloride]	0.086
Clc1ccc(CCC(Cn2ccnc2)Sc2c(Cl)cccc2Cl)cc1 (stereo not drawn) [Butoconazole nitrate]	0.177
C[C@]12CCC(=O)C=C1CC[C@@H]1[C@@H]2[C@@H](O)C[C@@]2(C)[C@H]1CC[C@]2(O)C(=O)CO [Hydrocortisone base]	-0.211
CC(C)CC(N(C)C)C1(c2ccc(Cl)cc2)CCC1.Cl (stereo not drawn) [Sibutramine HCl]	-2.027
CCC(C)(C)c1ccc(CC(C)CN2C[C@@H](C)O[C@@H](C)C2)cc1 (stereo partly drawn) [Amorolfine hydrochloride]	0.823
NC[C@H]1CC[C@H](C(=O)O)CC1 [Tranexamic acid]	-2.357
C[C@]12CC[C@@H]3c4ccc(OC(=O)N(CCCl)CCCl)cc4CC[C@H]3[C@@H]1CC[C@@H]2O [Estramustine]	-2.085
CCN(C)C(=O)Oc1cccc([C@H](C)N(C)C)c1 [Rivastigmine]	0.007
CCC(=O)OCC(=O)[C@@]1(OC(=O)CC)[C@H](C)C[C@H]2[C@H]3[C@H]([C@@H](O)C[C@@]21C)[C@@]1(C)C=CC(=O)C=C1C[C@H]3Cl [Alclometasone dipropionate]	-0.89
N=C(N)N/N=C/c1c(Cl)cccc1Cl [Guanabenz acetate]	2.599
CCOC(=O)NNc1nncc2ccccc12 [Todralazine hydrochloride]	-0.535
O=c1[nH]c(=O)n(C2CCCO2)cc1F (stereo not drawn) [Tegafur]	0.934
CN(C)[C@@H]1C(O)=C(C(=O)NCNCCCC[C@H](N)C(=O)O)C(=O)[C@@]2(O)C(O)=C3C(=O)c4c(O)cccc4[C@@](C)(O)[C@H]3C[C@@H]12 [Lymecycline]	-0.586

Structure (SMILES)	B-score binding assay
CCCc1nc(C)c2c(=O)[nH]c(-c3cc(S(=O)(=O)N4CCN(CC)CC4)ccc3OCC)nn12 [Vardenafil]	-0.167
CC[C@H](C)C(=O)O[C@H]1C[C@@H](C)C=C2C=C[C@H](C)[C@H](CC[C@@H]3C[C@@H](O)CC(=O)O3)[C@H]21 [Lovastatin]	-2.793
COc1cc(C(=O)OCCCN2CCCN(CCCOC(=O)c3cc(OC)c(OC)c(OC)c3)CC2)cc(OC)c1OC.Cl.Cl [Dilazep dihydrochloride]	3.166
COc1ccc(C(=O)CC(=O)c2ccc(C(C)(C)C)cc2)cc1 [Avobenzone]	-1.454
O=C(Nc1ccc([N+](=O)[O-])cc1Cl)c1cc(Cl)ccc1O [Niclosamide]	-0.03
CC[C@@]1([C@H]2O[C@H]([C@H]3O[C@@](O)(CO)[C@H](C)C[C@@H]3C)C[C@H]2C)CC[C@H]([C@@]2(C)CC[C@]3(C[C@H](O)[C@@H](C)[C@@H]([C@H](C)[C@H](OC)[C@@H](C)C(=O)[O-])O3)O2)O1.[Na+] [Monensin sodium salt]	-0.589
NC(=O)NC1NC(=O)NC1=O (stereo not drawn) [Allantoin]	-1.26
C=C1C[C@@H]2[C@H](CC[C@]3(C)C(=O)CC[C@@H]23)[C@@]2(C)C=CC(=O)C=C12 [Exemestane]	0.659
N=C(N)c1ccc(OCCCCCOc2ccc(C(=N)N)cc2)cc1 [Pentamidine isethionate]	-0.163
Cl.Cl.c1ccc2c(c1)CCCc1cc(NCCN3CCOCC3)nnc1-2	-3.003
O=c1[nH]c(=O)n([C@H]2C[C@H](O)[C@@H](CO)O2)cc1I [Idoxuridine]	-0.75
CCCOc1cc(N)ccc1C(=O)OCCN(CC)CC [Propoxycaine hydrochloride]	-2.752
O=C([O-])c1ccccc1-c1c2cc(Br)c(=O)cc-2oc2[c]([Hg+])c([O-])c(Br)cc12.[Na+].[Na+].[OH-] [Merbromin]	-6.053
CCCN(CCC)C(=O)C(CCC(=O)O)NC(=O)c1ccccc1 (stereo not drawn) [Proglumide]	-2.435
CO[C@]12C[C@@H](COC(=O)c3cncc(Br)c3)CN(C)[C@@H]1Cc1cn(C)c3cccc2c13 [Nicergoline]	0.26
c1ccc2c(c1)Nc1ccccc1S2 [Phenothiazine]	-0.016
Nc1c2c(nc3ccccc13)CCCC2O.O=C(O)/C=C\C(=O)O (racemic) [Hydroxytacrine maleate (R,S)]	-4.051
CC(C(=O)O)c1ccc(-c2ccccc2)c(F)c1 (stereo not drawn) [Flurbiprofen]	1.247
O=C(O)c1ccccc1Nc1cccc(C(F)(F)F)c1 [Flufenamic Acid, Flufenamic acid]	-1.667

Structure (SMILES)	B-score binding assay
O=C(O)CCCC[C@@H]1SC[C@@H]2NC(=O)N[C@@H]21 [Biotin]	-3.098
CC(C)NCC(O)c1cc(O)cc(O)c1.CC(C)NCC(O)c1cc(O)cc(O)c1.O=S(=O)(O)O (stereo not drawn)	-0.643
C/C(=C(\CCOP(=O)(O)O)SC(=O)c1ccccc1)N(C=O)Cc1cnc(C)nc1N [Benfotiamine]	0.196
C[C@@H]1C[C@H]2[C@@H]3CCC4=CC(=O)C=C[C@]4(C)[C@@]3(Cl)[C@@H](O)C[C@]2(C)[C@@]1(OC(=O)c1ccco1)C(=O)CCl [Mometasone furoate]	-4.293
C=CC1=C(C(=O)O)N2C(=O)[C@@H](NC(=O)/C(=N\O)c3csc(N)n3)[C@H]2SC1 [Cefdinir]	0.499
CC#C[C@]1(O)CC[C@H]2[C@@H]3CCC4=CC(=O)CCC4=C3[C@@H](c3ccc(N(C)C)cc3)C[C@@]21C [Mifepristone]	-0.121
N#CC(c1ccc(Cl)cc1)c1c(Cl)cc(-n2ncc(=O)[nH]c2=O)cc1Cl (stereo not drawn) [Diclazuril]	-0.084
C[C@]12C=CC(=O)C=C1CC[C@@H]1[C@@H]2[C@@H](O)C[C@@]2(C)[C@H]1CC[C@]2(O)C(=O)CO [Prednisolone]	0.002
O=[N+]([O-])O[C@@H]1CO[C@H]2[C@@H]1OC[C@@H]2O [Isosorbide mononitrate]	-1.68
CN1CCN(c2c(F)cc3c(=O)c(C(=O)O)cn4c3c2SCC4)CC1 [Rufloxacin]	-0.201
CCOC(=O)c1ccc(N)cc1 [Benzocaine]	-1.908
OCCN1CCN(CCCN2c3ccccc3Sc3ccc(C(F)(F)F)cc32)CC1 [Fluphenazine dihydrochloride]	-0.9
CC(=O)OCC(=O)[C@@]1(O)[C@H](C)C[C@H]2[C@@H]3CCC4=CC(=O)C=C[C@]4(C)[C@@]3(F)[C@@H](O)C[C@@]21C [Dexamethasone acetate]	-0.201
O=C(CCCN1CCC2(CC1)C(=O)NCN2c1ccccc1)c1ccc(F)cc1 [Spiperone]	0.875
Cc1[nH]cnc1CN1CCc2c(c3ccccc3n2C)C1=O [Alosetron hydrochloride]	-0.152
O=c1c2ccccc2[se]n1-c1ccccc1 [Ebselen]	-9.607
CC(C)NC[C@H](O)COc1cccc2ccccc12 [(S)-propranolol hydrochloride]	0.068
NC(CO)C(=O)NNCc1ccc(O)c(O)c1O (stereo not drawn) [Benserazide hydrochloride]	0.009
CC(=O)O[C@@]12CO[C@@H]1C[C@H](O)[C@@]1(C)C(=O)[C@H](O)C3=C(C)[C@@H](OC(=O)[C@H](O)[C@@H](NC(=O)OC(C)(C)C)c4ccccc4)C[C@@](O)([C@@H](OC(=O)c4ccccc4)[C@H]21)C3(C)C [Docetaxel]	-0.007

same assay, conditions: screening Myrcludex B-FITC binding, 10 µM drug, Prestwick library

Structure (SMILES)	%NTCP binding
C[C@]12CCC(=O)C=C1CC[C@@H]1[C@@H]2[C@@H](O)C[C@@]2(C)[C@H]1CC[C@]2(O)C(=O)CO [Hydrocortisone base]	66.5265%
COc1cc(C(=O)OCCCN2CCCN(CCCOC(=O)c3cc(OC)c(OC)c(OC)c3)CC2)cc(OC)c1OC.Cl.Cl [Dilazep dihydrochloride]	58.9014%
CC(C)NCC(O)c1cc(O)cc(O)c1.CC(C)NCC(O)c1cc(O)cc(O)c1.O=S(=O)(O)O (stereo not drawn)	73.0014%
O=C1c2cccc(O)c2C(=O)c2c(O)cccc21 [1,8-Dihydroxyanthraquinone]	99.5447%

same assay, conditions: screening Myrcludex B-FITC binding, 10 µM drug; B-score

Structure (SMILES)	B-score binding assay
CCc1nc(N)nc(N)c1-c1ccc(Cl)cc1 [Pyrimethamine]	1.264
CC(N)CCCC(C)(C)O (stereo not drawn) [Heptaminol hydrochloride]	1.772
COc1cc([C@@H]2c3cc4c(cc3[C@H](O)[C@H]3COC(=O)[C@H]23)OCO4)cc(OC)c1OC [Podophyllotoxin]	2.162
O=C1c2cccc(O)c2C(=O)c2c(O)cccc21 [1,8-Dihydroxyanthraquinone]	2.635
CCOC(=O)Nc1ccc2c(c1)N(C(=O)CCN1CCOCC1)c1ccccc1S2 [Moricizine hydrochloride]	2.409

Counter-ions that a name gives are not always drawn.
